{"source": "patent US9687472B2", "about": "“Use of antioxidants as an adjuvant to immune stimulators to augment tumor immunity and prevent toxicity associated with oxidative stress” (BATU BIOLOGICS, priority 2014, dated 2017)", "origin": "cited, not measured here", "key": {"[1]": {"settings": "in vivo, iv"}, "[2]": {"system": "metastatic renal cell carcinoma"}, "[3]": {"settings": "human, in vivo"}, "[4]": {"system": "factor XII and prekallikrein", "settings": "human, in vivo"}, "[5]": {"system": "granulocytes", "settings": "human, in vivo"}, "[6]": {"settings": "after first phase"}, "[7]": {"system": "complement system", "settings": "human, in vivo"}}, "data": [{"substance": "IL-2: cytokine; first recombinant immunotherapeutic drug approved by the FDA, used as immune stimulator", "values": [{"measurement": "half-life", "setting": "[1]", "result": "approximately 2 minutes"}, {"measurement": "patients who have to interrupt or stop therapy because of VLS", "setting": "[2]; human, in vivo", "result": "65 % of patients"}, {"measurement": "treated patients having lethal outcome (severe VLS)", "setting": "[2]; human, in vivo", "result": "approximately 1%"}, {"measurement": "objective responses", "setting": "[2]; metastatic renal cell carcinoma patients, meta-analysis", "result": "23 % of patients"}, {"measurement": "half life", "setting": "[3]", "result": "approximately an hour"}, {"measurement": "factor XII level, corrected for albumin decreases", "setting": "[4]", "result": 80, "unit": "%"}, {"measurement": "prekallikrein level, corrected for albumin decreases", "setting": "[4]", "result": 50, "unit": "%"}, {"measurement": "mean peak elastase/alpha 1-antitrypsin (E alpha 1 A)", "setting": "[5]", "result": "212 (SEM=37) ng ml-1"}, {"measurement": "mean peak lactoferrin", "setting": "[5]", "result": "534 (SEM=92) ng ml-1"}, {"measurement": "mean plasma ascorbic acid level", "setting": "[6]; high-dose interleukin 2 alone", "result": "0.13 ± 0.08", "unit": "mg/dL"}, {"measurement": "drop of mean plasma ascorbic acid levels", "setting": "[6]; high-dose interleukin 2 alone (10(5) units/kg every 8 h, 5 days)", "result": 80, "unit": "%"}, {"measurement": "increase of Ba protein", "setting": "[7]", "result": 8.0, "unit": "fold"}, {"measurement": "increase of Bb protein", "setting": "[7]", "result": 5.0, "unit": "fold"}, {"measurement": "increase of plasma C3a levels", "setting": "[7]", "result": 15.6, "unit": "fold"}, {"measurement": "increase of plasma C4d concentration", "setting": "[7]", "result": 4.8, "unit": "fold"}, {"measurement": "increase of plasma SC5b-9", "setting": "[7]", "result": 5.0, "unit": "fold"}, {"measurement": "increase of plasma iC3b concentration", "setting": "[7]", "result": 2.9, "unit": "fold"}, {"measurement": "increase of surface expression of anti-C3c on CD3 cells", "setting": "[7]", "result": 6.2, "unit": "fold"}, {"measurement": "increase of surface expression of anti-SC5b-9 on CD3 cells", "setting": "[7]", "result": 5.1, "unit": "fold"}]}]}
